Measurements: patent US20060110385A1, “Means and methods for diagnosing and treating affective disorders” (Affectis Pharmaceuticals AG, priority 2003, published 2006)

Tested on: P2X7R
Experiment: P2X7R expression in mouse brain by immunohistochemistry after paroxetine
Assay type: in vivo
Conditions: paroxetine 10 mg/kg twice per day, 28 days
Procedure: The expression of P2X7R was further studied by immunohistochemistry of serial sections of complete mouse brains using a polyclonal antibody directed against an internal peptide of P2X7R (Santa Cruz Biotechnology). The brains from stress-free mice were shock frozen, cut into 16 μm slices and fixed with paraformaldehide for 5 minutes. The sections were blocked for 30 minutes at room temperature with 1:10 horse serum. All antibodies were diluted in TBST buffer (Tris-buffered saline with 0.05% Tween-20). The first antibody was used in a dilution 1:200 and incubated overnight. All washes were performed with TBST buffer. As a secondary antibody, an anti-goat IgG biotinylated (Vector Laboratories) was used and detection was performed using the streptavidin-biotin-horse-radish peroxidase complex system (Vector Laboratories) in combination with diaminobencidine. Slides were counterstained with toluidine blue using standard procedures. The same procedure in the absence of the primary antibody was performed as a negative control. As a positive control to test the Preservation of the tissue was verified with an antibody specific for the protein Patched1 (Santa Cruz Biotechnology). Patched1 was used as positive control since it stains all relevant brain structures and is not affected by stress or antidepressants. Very specific staining pattern was detected, consistent with the specific subcellular localization of P2X7R in brain cells. Negative controls were completely devoid of signal.
The expression of P2X7R in the brains of mice under stress-free conditions, and mice under mild stress produced by the vehicle application, and mice under paroxetine treatment was evaluated using three different brains from each group. […] This effect was observed all along the hippocampus but was more evident in the polymorph layer near the dentate gyrus. […] Therefore, P2X7R expression is strongly regulated in two specific brain areas involved in depression and stress.

## Fc1ccc([C@@H]2CCNC[C@H]2COc2ccc3c(c2)OCO3)cc1 [paroxetine]
  P2X7R expression in the ependymal cells: No significant change
  P2X7R expression in the hippocampus: marked stimulation above basal levels
  P2X7R expression in the olfactory bulb: No significant change
  P2X7R expression in the periventricular nucleus of the hypothalamus: slight inhibition of P2X7R expression
  P2X7R expression in the subcommissural organ: remained unchanged
